Results published in US20180362449A1, “THE EXOCYST AS A NOVEL DRUG TARGET OF ENDOSIDIN2 AND APPLICATION AS A THERAPEUTIC” (The Regents of the University of California, priority 2015, published 2018).

Protein sequences, listed by entry. Tags and fused reporters are not part of them. Residues count along the entry.
UniProt Q9LZD3, 75-638 L596A/I613A: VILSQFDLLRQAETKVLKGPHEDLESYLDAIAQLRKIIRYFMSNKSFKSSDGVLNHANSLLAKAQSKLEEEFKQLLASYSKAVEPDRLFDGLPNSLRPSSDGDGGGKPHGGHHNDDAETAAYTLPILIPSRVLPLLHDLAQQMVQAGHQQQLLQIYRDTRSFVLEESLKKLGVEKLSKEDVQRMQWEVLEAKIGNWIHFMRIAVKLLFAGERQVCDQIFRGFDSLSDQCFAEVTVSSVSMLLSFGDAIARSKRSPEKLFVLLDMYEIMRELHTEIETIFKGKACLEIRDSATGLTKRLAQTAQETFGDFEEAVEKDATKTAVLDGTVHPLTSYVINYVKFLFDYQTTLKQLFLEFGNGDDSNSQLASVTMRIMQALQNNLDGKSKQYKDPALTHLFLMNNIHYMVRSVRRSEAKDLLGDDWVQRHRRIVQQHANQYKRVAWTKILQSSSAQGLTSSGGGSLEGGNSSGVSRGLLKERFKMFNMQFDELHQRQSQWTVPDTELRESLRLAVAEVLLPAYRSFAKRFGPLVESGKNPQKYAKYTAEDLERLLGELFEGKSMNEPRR

Legend:
EXO70A1-L596A;I613A [1] = target: T1, EXO70A1-L596A;I613A (Arabidopsis thaliana, UniProt Q9LZD3, I613A/L596A); design: unit not given beside the values; settings: MST, no unit
EXO70A1-L596A;I613A [2] = target: T1, EXO70A1-L596A;I613A; settings: 10 μM protein, 400 μM ES2

Structure (SMILES): COc1cc(/C=N/NC(=O)c2cccc(F)c2)cc(I)c1O [ES2]
- Kd (EXO70A1-L596A;I613A [1]): 252+50.6
- integrities of STD-NMR spectrum in ES2 relative to wild-type EXO70A1 (EXO70A1-L596A;I613A [2]): about 20 % of the wild-type EXO70A1 protein
